The values that follow come from ChEMBL document CHEMBL1131860.

Chains of the proteins cited; added tags and fusions are not shown.
UniProt P97266, whole entry, looked up: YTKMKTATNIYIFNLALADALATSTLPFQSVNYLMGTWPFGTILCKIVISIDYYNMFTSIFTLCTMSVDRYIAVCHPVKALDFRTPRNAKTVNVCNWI

One may read the pKd as −log10 of the Kd, conventionally taken in molar units. A high value points to a low Kd.

pKd: −log10 of the molar value.

This assay has as its target Mu-type opioid receptor (Cavia porcellus, UniProt P97266). In words: Binding affinity against Mu opioid receptor using [35S]GTP-gamma-S, binding assay in guinea pig caudate membranes in unblocked condition. (In general: GTPγS resists hydrolysis and so accumulates on activated G proteins.)

Consider `CN(C(=O)Cc1ccccc1)[C@H]1CC[C@@]2(CCCO2)C[C@@H]1N1CCCC1`, for which the pKd was 6.16.
